Data: article PMC3097170 (The Journal of pharmacology and experimental therapeutics, 2011)

Amino acid sequences for entries named in this document (tags omitted).
UniProt P32300, whole entry: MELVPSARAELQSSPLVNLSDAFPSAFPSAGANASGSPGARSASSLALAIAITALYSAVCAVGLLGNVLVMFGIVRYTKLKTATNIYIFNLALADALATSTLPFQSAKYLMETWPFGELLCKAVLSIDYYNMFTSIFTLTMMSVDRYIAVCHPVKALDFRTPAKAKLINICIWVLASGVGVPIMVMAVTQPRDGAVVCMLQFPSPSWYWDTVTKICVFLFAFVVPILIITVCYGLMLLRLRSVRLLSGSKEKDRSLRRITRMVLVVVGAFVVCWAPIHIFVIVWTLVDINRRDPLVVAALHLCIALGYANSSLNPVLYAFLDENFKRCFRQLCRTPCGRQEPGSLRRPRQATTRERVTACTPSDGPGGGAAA
UniProt P42866, whole entry: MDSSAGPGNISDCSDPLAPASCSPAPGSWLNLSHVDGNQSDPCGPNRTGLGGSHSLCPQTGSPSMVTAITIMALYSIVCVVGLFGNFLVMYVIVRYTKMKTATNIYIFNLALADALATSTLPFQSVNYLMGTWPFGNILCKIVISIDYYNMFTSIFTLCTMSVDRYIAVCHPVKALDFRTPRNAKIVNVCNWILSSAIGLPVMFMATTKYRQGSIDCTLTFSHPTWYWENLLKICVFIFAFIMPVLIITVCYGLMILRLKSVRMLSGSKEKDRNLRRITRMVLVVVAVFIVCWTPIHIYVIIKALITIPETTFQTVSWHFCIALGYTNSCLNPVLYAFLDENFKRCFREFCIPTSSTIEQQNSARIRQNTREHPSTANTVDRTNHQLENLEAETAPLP

Columns and labels:
DOR/MOR heteromers = DOR/MOR heteromers (Mus musculus, UniProt P32300+P42866); assay type: cell-based, murine
MOR homomers = MOR homomers (Mus musculus, UniProt P42866); assay type: cell-based, murine; conditions: pre-treatment with MOR-specific antagonist, dose-dependent

## CTAP
DOR/MOR heteromers
  inhibition of methadone-induced endocytosis of DOR/MOR heteromers: blocked endocytosis
MOR homomers
  inhibition of methadone-induced endocytosis of MOR homomers: blocked endocytosis
